Measured values: patent EP3858345B1, “RADIOTRACER DERIVATIVES OF TRIMETHOPRIM FOR DIAGNOSTIC IMAGING” (dated 2026)

Legend:
HCT116 DHFR cells = assay: ^18F-FP-TMP uptake/specificity study in DHFR cells; settings: for 10 µM MTX Mean (uptake) / 10 µM TMP Mean (uptake) / DHFR Mean (uptake): HCT116 DHFR cells; for 10 µM MTX Mean (uptake): co-incubated with 10 µM MTX; for 10 µM TMP Mean (uptake): co-incubated with 10 µM TMP; for DHFR Mean (uptake): no competitor
HCT116 = assay: ^18F-FP-TMP uptake/specificity study in control cells; settings: for 10 µM MTX Mean (uptake): co-incubated with 10 µM MTX; for 10 µM TMP Mean (uptake): co-incubated with 10 µM TMP; for Control Mean (uptake): no competitor
293 DHFR cells = assay: [^18F]FPTMP in vitro detection, serial dilutions of cells; settings: 2 hours incubation, gamma counter
[1] = tested on: Mouse breast cancer cells (4T1); assay: Tumor imaging in the infection v inflammation v tumor model; settings: 4T1 cells subcutaneously in left shoulder 12h prior to imaging
[2] = Half-life of the radiotracer
[3] = tested on: recombinant Ec DHFR protein; assay: [^11C]TMP dot blot binding assay; settings: Ec DHFR 100-4 µM on nitrocellulose, with or without cold TMP (10 µM)
HEK293 cells = assay: [^11C]TMP cell uptake study, HEK 293 control vs DHFR cells
HCT116 cells = assay: [^11C]TMP cell uptake study, HCT116 control vs DHFR cells; settings: at the time of assay
DHFR tumors = assay: [^11C]TMP biodistribution analysis, gamma counter
[4] = [^11C]TMP urinary excretion, radio-thin layer chromatography and bladder signal
HCT116 tumors = assay: [^11C]TMP small animal PET/CT of DHFR and control tumor xenografts; settings: PET time activity curve, DHFR HCT116 cells compared to control cells

Compound: [^18F]Fluoropropyltrimethoprim
- induction in DHFR cells compared to control cells (HCT116 DHFR cells; HCT116, 30 minutes): over 7 fold
- signal induction in DHFR cells compared to control cells (HCT116 DHFR cells; HCT116, 120 minutes): 15 fold
- 10 µM MTX Mean (uptake) (HCT116 DHFR cells; 5 min): 17.2
- 10 µM TMP Mean (uptake) (HCT116 DHFR cells; 5 min): 5.82
- DHFR Mean (uptake) (HCT116 DHFR cells; 5 min): 14.3
- 10 µM MTX Mean (uptake) (HCT116 DHFR cells; 30 min): 30.4
- 10 µM TMP Mean (uptake) (HCT116 DHFR cells; 30 min): 6.66
- DHFR Mean (uptake) (HCT116 DHFR cells; 30 min): 47.2
- 10 µM MTX Mean (uptake) (HCT116 DHFR cells; 60 min): 18.8
- 10 µM TMP Mean (uptake) (HCT116 DHFR cells; 60 min): 7.04
- DHFR Mean (uptake) (HCT116 DHFR cells; 60 min): 87.1
- 10 µM MTX Mean (uptake) (HCT116 DHFR cells; 120 min): 9.42
- 10 µM TMP Mean (uptake) (HCT116 DHFR cells; 120 min): 8.38
- DHFR Mean (uptake) (HCT116 DHFR cells; 120 min): 134.6
- 10 µM MTX Mean (uptake) (HCT116; 5 min): 6.32
- 10 µM TMP Mean (uptake) (HCT116; 5 min): 5.37
- Control Mean (uptake) (HCT116; 5 min): 5.11
- 10 µM MTX Mean (uptake) (HCT116; 30 min): 5.59
- 10 µM TMP Mean (uptake) (HCT116; 30 min): 5.83
- Control Mean (uptake) (HCT116; 30 min): 6.58
- 10 µM MTX Mean (uptake) (HCT116; 60 min): 6.74
- 10 µM TMP Mean (uptake) (HCT116; 60 min): 6.48
- Control Mean (uptake) (HCT116; 60 min): 7.37
- 10 µM MTX Mean (uptake) (HCT116; 120 min): 8.62
- 10 µM TMP Mean (uptake) (HCT116; 120 min): 7.61
- Control Mean (uptake) (HCT116; 120 min): 8.4
- in vitro detection sensitivity (293 DHFR cells): a few hundred DHFR cells
- uptake in tumor cells [1]: no
- half-life [2]: 1.83 h

Compound: COc1cc(Cc2cnc(N)nc2N)cc(OC)c1O[11CH3]
- [^11C]TMP binding in dot blot [3]: concentration-dependent specific cell uptake
- signal induction (HEK293 cells; HEK293 DHFR cells vs control, at the time of assay): over 10 fold
- effect of MTX co-treatment on uptake (HEK293 cells; in vitro, DHFR cells, inhibitory concentration of MTX): no change in the dynamic range of uptake
- effect of cold TMP co-treatment on uptake (HEK293 cells; in vitro, co-treatment with cold TMP): blocked specific uptake
- uptake in control cells (HEK293 cells; in vitro, control cells): little uptake
- induction (HCT116 cells): 3 fold
- liver uptake (DHFR tumors; 90 minutes after injection): modest liver uptake
- uptake from the kidneys (DHFR tumors; 90 minutes after injection): significant uptake
- DHFR to control signal induction (DHFR tumors; biodistribution 90 minutes after injection): over 3 fold
- uptake in the kidneys after oral TMP (DHFR tumors; mice pretreated with oral TMP): marked decreased in uptake
- form excreted in the urine ([4]; radio-thin layer chromatography of mouse urine): predominantly as the parent compound
- dose accumulating in the bladder ([4]; under anesthesia, rapid accumulation): approximately 20%
- signal induction (HCT116 tumors): over 3 fold

Compound: OC[C@H]1OC(O)[C@H](F)[C@@H](O)[C@@H]1O (stereo partly shown)
- uptake in tumor cells [1]: presence
